According to publication PMC11679574 (2024):

Legend:
Caco-2 [1] = conditions: cited from earlier work
Caco-2 [2] = conditions: cited from earlier work; remark: listed apart in the source

Dextran-FITC 4 kDa [FD4]
Papp (enteroid monolayers): < 1 ·10^−6 cm/s
Papp A to B, Flow (enteroid monolayers): 0 ×10⁻⁶ cm/s
Permeability difference translucent vs transparent membranes (enteroid monolayers): 2.3 fold
Papp (Caco-2 monolayers): < 1 ·10^−6 cm/s
Permeability difference translucent vs transparent membranes (Caco-2 monolayers): 1.3 fold
Papp A to B, Flow (Caco-2 [1]): 0.25 ×10⁻⁶ cm/s
Papp A to B, Static (Caco-2 [2]): <0.1 ×10⁻⁶ cm/s
